What was measured:
CCR5 [1] = biological target: T1, CCR5 (Homo sapiens, UniProt P51681); conditions: summary of Table 1
CCR5 [2] = biological target: T1, CCR5; assay: cell-based

By UniProt entry, the sequences of proteins in these tests, tags left out.
UniProt P51681, whole entry, species assumed: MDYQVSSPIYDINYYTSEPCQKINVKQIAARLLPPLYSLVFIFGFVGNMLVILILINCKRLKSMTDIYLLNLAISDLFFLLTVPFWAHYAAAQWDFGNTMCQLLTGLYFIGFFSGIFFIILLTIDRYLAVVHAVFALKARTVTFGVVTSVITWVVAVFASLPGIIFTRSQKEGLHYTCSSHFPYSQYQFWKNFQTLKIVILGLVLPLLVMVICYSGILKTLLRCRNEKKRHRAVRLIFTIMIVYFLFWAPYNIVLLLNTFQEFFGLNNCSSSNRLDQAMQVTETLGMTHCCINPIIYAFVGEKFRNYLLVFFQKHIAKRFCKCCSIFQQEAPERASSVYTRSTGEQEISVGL

| SMILES | CCR5 inhibition (in words) (CCR5 [1]) | IC50 (CCR5 [2]) |
| --- | --- | --- |
| Cc1cnc(C(=O)c2ccnc3[nH]ccc23)c(NS(=O)(=O)c2ccc(Cl)c(C(F)(F)F)c2)c1 [Compound 1] | do not inhibit | > 5 µM |
| Cc1cnc(C(=O)c2ncnc3[nH]ccc23)c(NS(=O)(=O)c2ccc(Cl)c(C(F)(F)F)c2)c1 [Compound 2] | do not inhibit | – |
| O=C(c1ncc(Cl)cc1NS(=O)(=O)c1ccc(Cl)c(C(F)(F)F)c1)c1ccnc2[nH]ccc12 [Compound 3] | do not inhibit | – |

Source: patent publication US11357760B2, “Method of treating liver fibrosis” (ChemoCentryx, Inc., priority 2016, dated 2022)
